Assay results from ChEMBL document CHEMBL4840365, “BMS-813160: A Potent CCR2 and CCR5 Dual Antagonist Selected as a Clinical Candidate” (ACS Med Chem Lett, 2021).

Assay: Antagonist activity at CCR2 in human THP-1 cells assessed as reduction in CCL2-induced chemotaxis

CC(=O)N[C@@H]1C[C@H](N(C)C(C)C)CC[C@@H]1N1CC[C@H](Nc2ncnc3ccc(C(F)(F)F)cc23)C1=O
IC50: 0.7 nM
